Laboratory results as given in ChEMBL document CHEMBL1133762, “Aureobasidins: structure-activity relationships for the inhibition of the human MDR1 P-glycoprotein ABC-transporter” (J Med Chem, 2000).

Test system: Saccharomyces cerevisiae
Assay: Relative antifungal activity (against Saccharomyces cerevisiae) compared to AbA

Row | SMILES | antifungal AbA/analogue ratio
1 | CC[C@H](C)[C@@H]1NC(=O)[C@@H]2CCCN2C(=O)[C@@H](C)N(C)C(=O)[C@H](Cc2ccc(O)cc2)NC(=O)[C@H](C(C)C)N(C)C(=O)[C@@H]([C@@H](C)CC)OC(=O)[C@H](C(C)(C)O)N(C)C(=O)[C@H](CC(C)C)NC(=O)[C@H](C(C)C)N(C)C1=O | 0.016
2 | CC[C@H](C)[C@H]1OC(=O)[C@H](C(C)(C)O)N(C)C(=O)[C@H](CC(C)C)NC(=O)[C@H](C(C)C)N(C)C(=O)[C@H](C(C)C)NC(=O)[C@@H]2CCCN2C(=O)[C@H](Cc2ccccc2)N(C)C(=O)[C@H](Cc2ccccc2)NC(=O)[C@H](C(C)C)N(C)C1=O | 1
